# Yeast mating assay 1: variants of the scFv Ab-14

The measurements come from Engelhart et al. 2022 (doi:10.1038/s41597-022-01779-4) through the FLAb antibody collection.

Target peptide (SARS-CoV-2 spike, HR2 region): PDVDLGDISGINAS

The variants keep the heavy chain, the linker and the frameworks of Ab-14 (scFv order VH, the linker GGGGSGGGGSGGGGS, VL).
VH: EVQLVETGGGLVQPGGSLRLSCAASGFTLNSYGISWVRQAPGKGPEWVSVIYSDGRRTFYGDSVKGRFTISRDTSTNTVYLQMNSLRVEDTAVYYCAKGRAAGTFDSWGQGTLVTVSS
VL: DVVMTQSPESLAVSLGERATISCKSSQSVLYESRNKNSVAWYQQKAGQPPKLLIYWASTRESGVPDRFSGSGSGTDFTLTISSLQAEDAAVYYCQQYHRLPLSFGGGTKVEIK

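Library AAYL50 holds single substitutions and randomly drawn double and triple substitutions in the CDRs. AlphaSeq pools MATa yeast showing the antibodies with MATalpha yeast showing the peptide. Pairs that bind mate more often; barcode pairs of the diploids are counted by sequencing. Each replicate has its own calibration line, from reference interactions of the BCL2 family. There are three technical replicates.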

Each variant is given by its three light chain CDRs, as the data file delimits them; those of the parent are KSSQSVLYESRNKNSVA, WASTRES, QQYHRLPLS.
Values are log10 of the apparent Kd in nM; lower means stronger binding.
Averages over replicates are reported, and they cover detected replicates only.
"n.d." means that the variant was in the library but no mating with the target was seen in that replicate; the authors take this as a sign of poor binding, and no number exists.

{"CDR-L1": "KSSQDKLYESRYKNSVA", "CDR-L2": "WASTRES", "CDR-L3": "QQYHRLPLS", "log10 Kd, replicates": "1.90 1.80 1.96", "mean log10 Kd (nM)": "1.89"}
{"CDR-L1": "TSSQSTLYESRNKNSVA", "CDR-L2": "WASTRES", "CDR-L3": "QPYHRLPLS", "log10 Kd, replicates": "n.d. n.d. n.d.", "mean log10 Kd (nM)": "n.d."}
{"CDR-L1": "KSSQSILYESSNKNSVA", "CDR-L2": "WASTRES", "CDR-L3": "QSYHRLPLS", "log10 Kd, replicates": "0.99 1.13 1.08", "mean log10 Kd (nM)": "1.07"}
{"CDR-L1": "KSSQSVSYESRNKNSVA", "CDR-L2": "WASTRES", "CDR-L3": "QQYHRDPLS", "log10 Kd, replicates": "1.19 1.17 1.18", "mean log10 Kd (nM)": "1.18"}
{"CDR-L1": "KSSQSVLYESRNKNSVA", "CDR-L2": "WSSTEES", "CDR-L3": "QQYHRLPLS", "log10 Kd, replicates": "n.d. n.d. n.d.", "mean log10 Kd (nM)": "n.d."}
{"CDR-L1": "KYSQSVLYESRNKNHVA", "CDR-L2": "NASTRES", "CDR-L3": "QQYHRLPLS", "log10 Kd, replicates": "-0.24 0.07 -0.14", "mean log10 Kd (nM)": "-0.10"}
{"CDR-L1": "KSSQSILRESRNKNSVA", "CDR-L2": "WASTRES", "CDR-L3": "QQYHRLPLS", "log10 Kd, replicates": "1.68 1.57 1.94", "mean log10 Kd (nM)": "1.73"}
{"CDR-L1": "KSSQSVLDESRNKNSVH", "CDR-L2": "WASTRES", "CDR-L3": "QQYHRLPCS", "log10 Kd, replicates": "n.d. n.d. n.d.", "mean log10 Kd (nM)": "n.d."}
{"CDR-L1": "KSSQSVLYESRNKNSVA", "CDR-L2": "WASTRES", "CDR-L3": "QCYVRAPLS", "log10 Kd, replicates": "5.38 3.31 2.77", "mean log10 Kd (nM)": "3.82"}
{"CDR-L1": "KSSQSVLYESRNKNSEA", "CDR-L2": "WASPRES", "CDR-L3": "QQYHRLILS", "log10 Kd, replicates": "n.d. n.d. 5.09", "mean log10 Kd (nM)": "5.09"}
{"CDR-L1": "KSSQSVLYESRNKNSVA", "CDR-L2": "WASTKES", "CDR-L3": "QKPHRLPLS", "log10 Kd, replicates": "n.d. 2.99 n.d.", "mean log10 Kd (nM)": "2.99"}
{"CDR-L1": "KSSQSVLYESYNKNSVA", "CDR-L2": "WASTRED", "CDR-L3": "QQYHPLPLS", "log10 Kd, replicates": "n.d. n.d. n.d.", "mean log10 Kd (nM)": "n.d."}
{"CDR-L1": "KSSQSVLYESRNKNSVA", "CDR-L2": "EKFTRES", "CDR-L3": "QQYHRLPLS", "log10 Kd, replicates": "-0.20 0.18 -0.05", "mean log10 Kd (nM)": "-0.02"}
{"CDR-L1": "KSSQSVLGESRNKNSVN", "CDR-L2": "GASTRES", "CDR-L3": "QQYHRLPLS", "log10 Kd, replicates": "4.30 n.d. 2.74", "mean log10 Kd (nM)": "3.52"}
{"CDR-L1": "KSSQSVLYESRNGNSVA", "CDR-L2": "WAYTRES", "CDR-L3": "QQYHRTPLS", "log10 Kd, replicates": "1.65 1.46 1.71", "mean log10 Kd (nM)": "1.60"}
{"CDR-L1": "KSSQWVLYESRNKNPVA", "CDR-L2": "WASTIES", "CDR-L3": "QQYHRLPLS", "log10 Kd, replicates": "n.d. 4.34 3.68", "mean log10 Kd (nM)": "4.01"}
{"CDR-L1": "KSSQSVLKESRNKNSVA", "CDR-L2": "WASTRES", "CDR-L3": "QQYDRLPLI", "log10 Kd, replicates": "1.54 1.69 1.80", "mean log10 Kd (nM)": "1.68"}
{"CDR-L1": "KSSQSVLYESRNKNRVA", "CDR-L2": "WMSTRDS", "CDR-L3": "QQYHRLPLS", "log10 Kd, replicates": "n.d. 3.91 n.d.", "mean log10 Kd (nM)": "3.91"}

Top 2 of the variants detected in all replicates, tightest first:

{"CDR-L1": "KYSQSVLYESRNKNHVA", "CDR-L2": "NASTRES", "CDR-L3": "QQYHRLPLS", "log10 Kd, replicates": "-0.24 0.07 -0.14", "mean log10 Kd (nM)": "-0.10"}
{"CDR-L1": "KSSQSVLYESRNKNSVA", "CDR-L2": "EKFTRES", "CDR-L3": "QQYHRLPLS", "log10 Kd, replicates": "-0.20 0.18 -0.05", "mean log10 Kd (nM)": "-0.02"}

Empty control strains, which show no peptide, gave a signal in 18% of pairings with library AAYL50; the median was 4.19 and 95% of these signals were weaker than 2.99. No background was subtracted.